Sequences of proteins named here, by UniProt entry; tags and fusion partners are left off.
UniProt P14902, whole entry: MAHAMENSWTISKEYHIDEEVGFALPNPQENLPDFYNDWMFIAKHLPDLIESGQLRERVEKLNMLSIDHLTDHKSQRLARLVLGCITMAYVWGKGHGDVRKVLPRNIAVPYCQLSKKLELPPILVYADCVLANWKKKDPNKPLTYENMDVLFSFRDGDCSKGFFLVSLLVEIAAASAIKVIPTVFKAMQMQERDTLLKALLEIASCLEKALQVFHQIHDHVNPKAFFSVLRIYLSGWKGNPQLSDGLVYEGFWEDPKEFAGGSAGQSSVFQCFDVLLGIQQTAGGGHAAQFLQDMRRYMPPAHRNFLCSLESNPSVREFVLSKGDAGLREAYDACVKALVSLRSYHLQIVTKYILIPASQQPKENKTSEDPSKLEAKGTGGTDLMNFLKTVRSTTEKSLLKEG

According to US10533014B2, “Immunoregulatory agents” (Flexus Biosciences, Inc., priority 2014, dated 2020):

Molecular target: human IDO1 (Homo sapiens, UniProt P14902)
Assay: IDO inhibition assay in HEK293 cells stably expressing human IDO1 (Example 252)
Conditions: read-out: HEK Human IDO-1 Potency, 20 hours incubation, kynurenine by Ehrlich reagent, absorbance at 490 nm

Q: `CC(C(=O)Nc1ccc(Cl)cc1)N1CCC(Oc2ccnc3ccc(F)cc23)CC1` (single isomer, unassigned) [103] was tested. Which IC50 did it give?
A: < 250 nM
